Residue numbers refer to the chain shown, from its start. Activity calls are given as the source filed them. No cut-off for these calls is given here.
Experiments:
[1] = molecular target: T1, Heat shock protein 75 kDa, mitochondrial (Homo sapiens) (UniProt Q12931); test: Inhibition of TRAP1 in human HeLa cells assessed as increase in SDHB degradation at 2 uM incubated for 12 hrs by Western blot analysis; type: cell-based
T1 sequence (whole entry): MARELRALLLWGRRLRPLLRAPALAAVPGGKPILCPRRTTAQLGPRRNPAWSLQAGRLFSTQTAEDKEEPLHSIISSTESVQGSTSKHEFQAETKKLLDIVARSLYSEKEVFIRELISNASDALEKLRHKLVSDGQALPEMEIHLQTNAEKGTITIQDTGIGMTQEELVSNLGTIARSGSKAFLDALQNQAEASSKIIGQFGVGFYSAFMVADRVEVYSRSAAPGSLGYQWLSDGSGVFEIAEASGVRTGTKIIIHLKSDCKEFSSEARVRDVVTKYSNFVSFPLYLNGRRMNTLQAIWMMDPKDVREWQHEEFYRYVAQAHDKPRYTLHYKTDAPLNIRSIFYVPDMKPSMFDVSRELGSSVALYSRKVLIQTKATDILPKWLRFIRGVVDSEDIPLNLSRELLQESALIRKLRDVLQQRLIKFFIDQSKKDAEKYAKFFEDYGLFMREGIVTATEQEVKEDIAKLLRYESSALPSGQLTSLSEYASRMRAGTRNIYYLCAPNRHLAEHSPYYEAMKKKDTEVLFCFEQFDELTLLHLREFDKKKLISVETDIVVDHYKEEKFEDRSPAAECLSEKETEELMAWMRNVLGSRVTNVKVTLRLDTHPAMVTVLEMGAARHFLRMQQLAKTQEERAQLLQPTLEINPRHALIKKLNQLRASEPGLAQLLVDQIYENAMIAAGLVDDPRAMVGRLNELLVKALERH

[2] = molecular target: T1, Heat shock protein 75 kDa, mitochondrial (Homo sapiens); test: Inhibition of TRAP1 in human HeLa cells assessed as increase in SIRT3 degradation at 2 uM incubated for 12 hrs by Western blot analysis; type: cell-based
[3] = molecular target: T1, Heat shock protein 75 kDa, mitochondrial (Homo sapiens); test: Inhibition of TRAP1 in human HeLa cells assessed as upregulation of phospho-AMPK expression at 2 uM incubated for 12 hrs by Western blot analysis; type: cell-based
[4] = molecular target: T1, Heat shock protein 75 kDa, mitochondrial (Homo sapiens); test: Inhibition of TRAP1 in human HeLa cells assessed as upregulation of phospho-CHOP expression at 2 uM incubated for 12 hrs by Western blot analysis; type: cell-based
[5] = molecular target: T1, Heat shock protein 75 kDa, mitochondrial (Homo sapiens); test: Inhibition of TRAP1 in human 22Rv1 cells assessed as increase in SDHB degradation at 2 uM incubated for 12 hrs by Western blot analysis; type: cell-based
[6] = molecular target: T1, Heat shock protein 75 kDa, mitochondrial (Homo sapiens); test: Inhibition of TRAP1 in human 22Rv1 cells assessed as increase in SIRT3 degradation at 2 uM incubated for 12 hrs by Western blot analysis; type: cell-based
[7] = molecular target: T1, Heat shock protein 75 kDa, mitochondrial (Homo sapiens); test: Inhibition of TRAP1 in human 22Rv1 cells assessed as upregulation of phospho-AMPK expression at 2 uM incubated for 12 hrs by Western blot analysis; type: cell-based
[8] = molecular target: T1, Heat shock protein 75 kDa, mitochondrial (Homo sapiens); test: Inhibition of TRAP1 in human 22Rv1 cells assessed as upregulation of phospho-CHOP expression at 2 uM incubated for 12 hrs by Western blot analysis; type: cell-based
HeLa [9] = test: Induction of cell death in human HeLa cells assessed as increase in caspase-3 activation at 2 uM incubated for 12 hrs by Western blot analysis; type: functional, cell-based
CWR22R [10] = test: Induction of cell death in human 22Rv1 cells assessed as increase in caspase-3 activation at 2 uM incubated for 12 hrs by Western blot analysis; type: functional, cell-based
HeLa [11] = test: Effect on p53 protein level in human HeLa cells at 2 uM incubated for 12 hrs by Western blot analysis; type: functional, cell-based
HeLa [12] = test: Effect on PCNA protein level in human HeLa cells at 2 uM incubated for 12 hrs by Western blot analysis; type: functional, cell-based
CWR22R [13] = test: Effect on p53 protein level in human 22Rv1 cells at 2 uM incubated for 12 hrs by Western blot analysis; type: functional, cell-based
CWR22R [14] = test: Effect on PCNA protein level in human 22Rv1 cells at 2 uM incubated for 12 hrs by Western blot analysis; type: functional, cell-based
Mitochondrial membrane [15] = test: Induction of mitochondrial membrane depolarization in human HeLa cells at 2 uM incubated for 12 hrs by TMRM staining based flow cytometric analysis; type: cell membranes
Mitochondrial membrane [16] = test: Induction of mitochondrial membrane depolarization in human 22Rv1 cells at 2 uM incubated for 12 hrs by TMRM staining based flow cytometric analysis; type: cell membranes
HeLa [17] = test: Induction of ROS production in human HeLa cells at 2 uM incubated for 12 hrs by Mito-SOX staining based flow cytometric analysis; type: functional, cell-based
CWR22R [18] = test: Induction of ROS production in human 22Rv1 cells at 2 uM incubated for 12 hrs by Mito-SOX staining based flow cytometric analysis; type: functional, cell-based
[19] = molecular target: T1, Heat shock protein 75 kDa, mitochondrial (Homo sapiens); test: Binding affinity to GST-tagged TRAP1 (unknown origin) transfected in human 22Rv1 cell mitochondria at 10 to 50 uM incubated overnight by pull-down assay based Western blotting; conditions: dose 10-50 µM
[20] = molecular target: T1, Heat shock protein 75 kDa, mitochondrial (Homo sapiens); test: Inhibition of TRAP1 (unknown origin)-mediated SIRT3 activation assessed as reduction in SIRT3 deacetylase activity at 2 to 10 uM incubated for 30 mins by fluorescence based analysis; conditions: dose 2-10 µM
[21] = molecular target: T1, Heat shock protein 75 kDa, mitochondrial (Homo sapiens); test: Binding affinity to N-terminal 6Hits-tagged/TEV-fused human wildtype TRAP1 extracted from Escherichia coli BL21 (DE3) cells at 100 nM incubated for 2 hrs by fluorescence polarization assay
[22] = tested on: T2, Heat shock protein 75 kDa, mitochondrial (Homo sapiens), Q12931 [F353A/F531A]; test: Binding affinity to recombinant TRAP1 F353A/F531A mutant (unknown origin) at 5 uM incubated for 2 hrs by fluorescence based microplate reader
T2 sequence (whole entry): T1 sequence (whole entry) with F353A, F531A

[23] = molecular target: T1, Heat shock protein 75 kDa, mitochondrial (Homo sapiens); test: Binding affinity to recombinant TRAP1 at client binding site (unknown origin) at 5 uM incubated for 2 hrs in presence of MitoQ by fluorescence based direct binding assay

Structure (SMILES) | inhibition [1] | inhibition [2] | inhibition [3] | inhibition [4] | inhibition [5] | inhibition [6] | inhibition [7] | inhibition [8] | Activity (HeLa [9]) | Activity (CWR22R [10]) | Activity (HeLa [11]) | Activity (HeLa [12]) | Activity (CWR22R [13]) | Activity (CWR22R [14]) | Activity [22] | Activity [23] | further results
CN(C)CCOc1ccc(/C(=C(/CCCCCCCCCC[P+](c2ccccc2)(c2ccccc2)c2ccccc2)c2ccccc2)c2ccccc2)cc1 | Active | Active | Active | Active | Active | Active | Active | Active | Active | Active | inactive | inactive | inactive | inactive | – | – | Activity (Mitochondrial membrane [15]): Active; Activity (Mitochondrial membrane [16]): Active; Activity (HeLa [17]): Active; Activity (CWR22R [18]): Active; Activity [19]: Active; Compound Effectively Competes With Trap1 Clients Such As Sirt3 And Sdhb Compared To Mitoq; inhibition [20]: Active; Compared To Mitoq
C[P+](C)(CCCCCCNC(=O)c1cc2cc3c4c(c2oc1=O)CCCN4CCC3)c1ccccc1 | – | – | – | – | – | – | – | – | – | – | – | – | – | – | – | – | Activity [21]: inactive
CN(CCCCCC[P+](c1ccccc1)(c1ccccc1)c1ccccc1)C(=O)c1ccccc1C1=c2cc3c4c(c2Oc2c1cc1c5c2CCCN5CCC1)CCC[N+]=4CCC3 | – | – | – | – | – | – | – | – | – | – | – | – | – | – | inactive | inactive | –
CC(C)(C)[Si](C)(C)O[C@H]1CC[C@]2(C)[C@H]1[C@H]2CCC[P+](c1ccccc1)(c1ccccc1)c1ccccc1 | Active | Active | Active | Active | Active | Active | Active | Active | Active | Active | inactive | inactive | inactive | inactive | – | – | –
CN(CCCCCCCC[P+](c1ccccc1)(c1ccccc1)c1ccccc1)C(=O)c1ccccc1C1=c2cc3c4c(c2Oc2c1cc1c5c2CCCN5CCC1)CCC[N+]=4CCC3 | Active | Active | Active | Active | Active | Active | Active | Active | – | – | – | – | – | – | inactive | inactive | –
C[P+](CCCCCCNC(=O)c1cc2cc3c4c(c2oc1=O)CCCN4CCC3)(c1ccccc1)c1ccccc1 | – | – | – | – | – | – | – | – | – | – | – | – | – | – | – | – | Activity [21]: inactive
O=C(CCCCCCCCCC[P+](c1ccccc1)(c1ccccc1)c1ccccc1)Nc1nccs1 | Active | Active | Active | Active | Active | Active | Active | Active | Active | Active | inactive | inactive | inactive | inactive | – | – | –
CCN(CC)c1ccc2c(-c3ccccc3C(=O)N(C)CCCCCCCC[P+](c3ccccc3)(c3ccccc3)c3ccccc3)c3ccc(=[N+](CC)CC)cc-3oc2c1 | – | – | – | – | – | – | – | – | – | – | – | – | – | – | inactive | inactive | –
